Assay results reported in paper PMC7672622, “Interaction of Cucurbit[7]uril with Oxime K027, Atropine, and Paraoxon: Risky or Advantageous Delivery System?” (2020).

How the values were obtained:
paraoxon-poisoned mice = test: functional observatory battery (FOB) and survival; conditions: K027 and K027@CB[7] given with atropine
[1] = pharmacokinetic study of atropine, plasma and brain, LC-HRMS; conditions: atropine 10 mg/kg i.m., mean ± SEM, n = 3

CN1[C@@H]2CC[C@H]1C[C@@H](OC(=O)C(CO)c1ccccc1)C2 (stereo partly drawn)
survival until the end of the experiment (24 h) (paraoxon-poisoned mice): survived
λz ([1]; brain): 0.007 ± 0.001 L/min
λz ([1]; plasma): 0.024 ± 0.01 L/min
